Test: Storage stability of concentrates at elevated temperatures
Conditions: pH indicator in agricultural concentrate with carbohydrate acids as pH modifying agent

| Molecule | stability of the pH indicator in the presence of carbohydrate acids / carbohydrate acid mixture |
| --- | --- |
| O=[N+]([O-])c1ccc([N+](=O)[O-])c(O)c1 | low stability |
| resorcin blue | low stability |
